Reference: paper PMC12765074, “Mechanistic insights into enterocin C targeting the undecaprenyl phosphate recycling protein BacA” (The Journal of Biological Chemistry, 2025)

Tests used:
BacAef [1] = target: T1, BacAef (Enterococcus faecalis, UniProt A0ACD6TE02); assay: DSS crosslinking; format: binding; conditions: BacAef and peptide 17 μM each, DSS 100- or 1000-fold excess, 30 min, 4 °C
Protocol: Crosslinking experiments were performed using the amine-reactive, membrane-permeable, and non-cleavable crosslinker disuccinimidyl suberate (DSS) purchased from Sigma. EntC peptides and BacA protein were mixed at equimolar concentrations (17 μM) in buffer D in the presence of an excess of DSS crosslinker (1000-fold or 100-fold) in a final reaction volume of 20 μl. The reaction was incubated for 30 min at 4°C, and any unreacted DSS was quenched with 50 mM Tris-HCl. After separation on a 12% acrylamide gel, proteins were electrotransferred onto polyvinylidene difluoride (PVDF) membrane, and BacA was detected using peroxidase-coupled anti-His tag antibody (Penta-His HRP conjugate from Qiagen, RRID: AB_3699318) by chemiluminescence detection (Western Lightning Plus-ECL, PerkinElmer) using the ChemiDoc MP system (Bio-Rad).

BacAef [2] = target: T1, BacAef; format: binding; conditions: DSC, BacAef 33 μM + peptides 66 μM, 60 °C/h, representative of triplicate
Protocol: Thermal stability of BacA protein in different mixtures of peptides was performed by DSC on a MicroCal model VP-DSC (Malvern Panalytical, Malvern, UK). BacA (33 μM) was mixed with different mixtures of peptides at twice the BacA concentration (i.e. 66 μM). Each measurement was preceded by a baseline scan with the standard buffer. Scans were performed at 1 K/min (60 °C/h) temperature ramp between 30 °C and 100 °C. The heat capacity of the buffer was subtracted from that of the protein sample before analysis. The thermodynamic parameters were determined by fitting the data to the following equation: ΔCp(T)=Kd(T)ΔHcalΔHvH/[1+Kd(T)]^2RT^2 where Kd is the equilibrium constant for a two-state process, ΔHvH the enthalpy calculated based on a two-state process and ΔHcal the measured enthalpy.

BacAef/EntC2 = BacAef/EntC2 (Enterococcus faecalis, UniProt A0ACD6TE02); format: binding; conditions: ITC, 20 °C
Protocol: The experiments were carried out at 20 °C.

[3] = test system: E. faecalis (V583-derivative strain, WT); format: cell-based, Enterococcus faecalis; conditions: 6 μl droplets on a lawn of E. faecalis, BHI 0.75% agar, overnight; representative of three independent experiments
PgpB = conditions: Fluo-EntC1 100 nM, PgpB micelles, 0.1% DDM
BacAec = BacAec (Escherichia coli, UniProt P60932); assay: FIDA, BacAec; format: binding; conditions: Fluo-EntC1 100 nM, BacAec micelles, 0.1% DDM
BacAef [4] = target: T1, BacAef; assay: Flow-Induced Dispersion Analysis (FIDA), BacAef; format: binding; conditions: Fluo-EntC1 100 nM, BacAef micelles 2 μM, 0.1% DDM, pH 7.4, 25 °C; average of three experiments
BacAef [5] = target: T1, BacAef; assay: ITC, BacAef; format: binding; conditions: 20 °C

SMILES: CC[C@H](C)[C@H](NC(=O)[C@H](CCCCN)NC(=O)[C@H](CO)NC(=O)[C@H](Cc1ccccc1)NC(=O)[C@@H](NC(=O)[C@H](CO)NC(=O)[C@@H](N)CCC(=O)O)C(C)C)C(=O)NCC(=O)N[C@@H](CC(N)=O)C(=O)N[C@@H](C)C(=O)N[C@H](C(=O)NCC(=O)N1CCC[C@H]1C(=O)N[C@@H](C)C(=O)N[C@@H](C)C(=O)N[C@@H](Cc1ccc(O)cc1)C(=O)N[C@@H](Cc1c[nH]c2ccccc12)C(=O)N[C@H](C(=O)N[C@@H](CC(C)C)C(=O)N[C@@H](CCCCN)C(=O)NCC(=O)N[C@@H](CC(C)C)C(=O)NCC(=O)N[C@@H](CC(N)=O)C(=O)N[C@@H](CCSC)C(=O)N[C@@H](CO)C(=O)N[C@@H](CC(=O)O)C(=O)N[C@H](C(=O)N[C@@H](CC(N)=O)C(=O)N[C@@H](CCC(N)=O)C(=O)N[C@@H](C)C(=O)N[C@@H](CC(=O)O)C(=O)N[C@@H](CCCNC(=N)N)C(=O)N[C@H](C(=O)N[C@@H](CC(N)=O)C(=O)N[C@@H](CCCNC(=N)N)C(=O)N[C@@H](CCCCN)C(=O)N[C@@H](CCCCN)C(=O)N[C@@H](Cc1c[nH]cn1)C(=O)O)[C@@H](C)CC)C(C)C)[C@@H](C)CC)C(C)C (single isomer, unassigned) [EntC1]
- crosslinked complex band with BacAef (SDS-PAGE, western blot) (BacAef [1]): a strong and unique band
- melting temperature (Tm) of BacAef (BacAef [2]; 30-100 °C, Tris-HCl pH 7.5, 0.1% DDM, BacAef alone 66.3 °C): 72.8 °C
- enthalpy of denaturation (ΔH) of BacAef (BacAef [2]; BacAef alone 26.7 kcal/mol): 45.3 kcal/mol
- n (BacAef/EntC2; 400 μM into [BacAef/EntC2] 33 μM): 0.69 ± 0.01
- -TΔS (BacAef/EntC2; into [BacAef/EntC2]): 19.2 kcal/mol
- ΔG (BacAef/EntC2; into [BacAef/EntC2]): -8.48 kcal/mol
- ΔH (BacAef/EntC2; into [BacAef/EntC2]): -27.6 kcal/mol
- antibacterial activity (spot-on-lawn), E. faecalis [3]: neither peptide exhibited antibacterial activity when applied individually
- hydrodynamic radius (Rh) with PgpB (PgpB): no significant change
- hydrodynamic radius (Rh) with BacAec (BacAec): no significant change
- hydrodynamic radius (Rh) with BacAef (BacAef [4]): 3.8 nm
- -TΔS (BacAef [5]; into [BacAef] 33 μM): -3.4 kcal/mol
- ΔG (BacAef [5]; into [BacAef] 33 μM): -9 kcal/mol
- ΔH (BacAef [5]; into [BacAef] 33 μM): -5.4 kcal/mol
- n (BacAef [5]; peptides 400 μM into [BacAef] 33 μM, pH 7.4, 0.1% DDM, at least triplicate): 0.60 ± 0.02
